Reference: US20100316573A1, “Organic Compounds” (priority 2006, published 2010)

Experiments:
[1] = tested on: TNFα mRNA in SKOV-3 cells; assay: TNFα mRNA induction in SKOV-3 cells (FIG. 2), fold increase relative to untreated cells
[2] = tested on: TNF mRNA in tumor cell lines; assay: TNF mRNA levels in a panel of tumor cell lines treated with Compound II (FIG. 1); assay type: cell-based; details: sensitive cell lines (72 hour IC50<1 uM), 18 hrs, normalized to B-Actin mRNA
Text: Biosystems TaqMan Universal PCR Master Mix.
Implicit in these findings is that TNF levels may be used to predict sensitivity to a Smac Mimetic compound and that assessment of rising TNF levels may have potential as a strategy for monitoring a therapeutic response.

## N-D-Cyclohexyl-2-(2-{2-[(4-fluorophenyl)-methyl-amino]-pyridin-4-yl}pyrrolidin-1-yl)-2-oxo-ethyl]-2-methylamino-propinamide [Compound II]
[1]
  induction of TNFα mRNA (in words): induce TNFα mRNA in SKOV-3 cells in a dose dependent manner
[1]; 100 nM compound + PI (MG132)
  fold increase of TNF relative to untreated cells: 15-20 fold increase
[1]; 100 nM compound + ZVAD
  fold increase of TNF relative to untreated cells: 95-100 fold increase
[1]; 100 nM compound alone
  fold increase of TNF relative to untreated cells: ~50 fold increase
[1]; 1000 nM compound + PI (MG132)
  fold increase of TNF relative to untreated cells: 25-30 fold increase
[1]; 1000 nM compound + ZVAD
  fold increase of TNF relative to untreated cells: 125-130 fold increase
[1]; 1000 nM compound + sTNFR (soluble TNFα receptor)
  fold increase of TNF relative to untreated cells: 0-5 fold increase
[1]; 1000 nM compound alone
  fold increase of TNF relative to untreated cells: 120-130 fold increase
[1]; 100 nm compound + sTNFR (soluble TNFα receptor)
  fold increase of TNF relative to untreated cells: 0-1 fold increase
[2]
  response of TNF mRNA expression to treatment (in words): increasing expression of TNF mRNA
